# Assay results from PubChem BioAssay AID624263 (National Center for Advancing Translational Sciences (NCATS), 2012).
# The entries are a selection whose mix differs from that of the whole data set. Active and inactive are the calls of the source. Calls follow the shape of the dose curve; as a rule, active = well fitted activation curve with a large enough effect; inconclusive = small, poorly fitted or top-dose-only effect; inactive = flat fitted curve, though single readings scatter; cell line not stated here.
# Assay: A Quantitative High throughput Screen to Identify Chemical Modulators of PINK1 Expression; also: % of control where 0% means no effect; nearly all actives have a fitted effect of over 65% in size
# Conditions: PINK1 immunofluorescence, high-content cytometry, 24 h; series mostly up to 76.6 µM; activation (PINK1 increase): at the top concentration
row,Compound,activation (PINK1 increase)
1,Nc1ccccc1[As](=O)(O)c1ccccc1,inactive: -0.329%
2,O=C(O)COc1ccc([As](=O)(O)O)cc1[N+](=O)[O-],inactive: 0.778%
3,O=P(Nc1nccs1)(Oc1ccccc1)Oc1ccccc1,inactive: 0.706%
4,O=P(Nc1nccs1)(c1ccccc1)c1nc2ccccc2s1 (centres undefined),inactive: -0.373%
5,CS(=O)(=O)c1cc([N+](=O)[O-])c2no[n+]([O-])c2c1,inactive: 2.35%
6,N#CCCN(C(=O)COC(=O)C(O)(c1ccccc1)c1ccccc1)c1ccc(F)cc1,inactive: -0.365%
7,CN(C(=O)Cc1ccccc1)[C@@H]1CC[C@]2(CCCO2)C[C@H]1N1CCCC1,inactive: 0.873%
8,O=[N+]([O-])c1ccc2c(c1)nnn2O,inactive: 25.3% [at 38.3 µM]
9,CN(C)C(=O)c1cc([N+](=O)[O-])cc2c1-c1c(cc([N+](=O)[O-])cc1[N+](=O)[O-])C2=O,inactive: 0.614%
10,CC1=NCCc2c1[nH]c1ccccc21.O=[N+]([O-])c1cc([N+](=O)[O-])c(O)c([N+](=O)[O-])c1,inactive: -1.34%
11,CN(C(=O)Cc1ccc(Cl)c(Cl)c1)[C@H]1CC[C@@]2(CCCO2)C[C@@H]1N1CCCC1,inactive: -0.745%
12,NC(=O)Nc1ccc([As](=O)(O)O)cc1,inactive: 2.8%
13,Cc1cccc(OCC(=O)OC2CN3CCC2CC3)c1 (centres undefined),inactive: 1.17%
14,O=[As](O)(c1cccc(O)c1)c1cccc(O)c1,inactive: 0.142%
15,Cc1cc(C)cc(OP(C)(=O)Nc2ccc(C)cc2C)c1 (centres undefined),inactive: 5.31% [at 38.3 µM]
16,CCOC(=O)c1ccc(NP(C)(=O)Oc2cc(C)cc(C)c2)cc1 (centres undefined),inactive: 2.45%
17,O=C(OC1CN2CCC1CC2)c1ccc(Cl)cc1 (centres undefined),inactive: -0.128%
18,O=[As](O)(O)c1cccnc1,inactive: 0.794%
19,COc1cc(C(=O)NCC2(N3CCOCC3)CCCCC2)cc(Cl)c1OC(C)C,inactive: 0.279%
20,CS(=O)(=O)c1ccc(Cl)c(NC(=O)COC(=O)C(O)(c2ccccc2)c2ccccc2)c1,inactive: -1.41%
21,COc1ccccc1OP(C)(=O)Nc1cccc(Br)c1 (centres undefined),inactive: 2.02%
22,CCOP(=O)(Nc1cccc2ccccc12)OCC,inactive: 1.58%
23,CP(=O)(Nc1cccc(Br)c1)Oc1ccccc1 (centres undefined),inactive: 0.0758%
24,Nc1cccc2c([As](=O)(O)O)cccc12,inactive: 3.09%
25,Cc1ccc(NCCc2c([N+](=O)[O-])cc([N+](=O)[O-])cc2[N+](=O)[O-])cc1,inactive: 10.2%
26,Cc1ccc(C)c(NP(C)(=O)Oc2ccccc2)c1 (centres undefined),inactive: 1.33%

row,Compound,activation (PINK1 increase)
1,CCCOP(=S)(Nc1nc(N)cc(=O)[nH]1)OCCC,inactive: 0.395%
2,O=P1(N(CCCl)CCCl)NCCC(C(F)(F)F)O1 (centres undefined),inactive: -0.645%
3,CN(Cc1cccnc1)C(=O)COc1ccc(Cl)c(Cl)c1.O=[N+]([O-])c1cc([N+](=O)[O-])c(O)c([N+](=O)[O-])c1,inactive: -0.383%
4,CC(C)(C)C(=O)NC(Sc1ncccn1)C(Cl)(Cl)Cl (centres undefined),inactive: 0.29%
5,O=P1(Nc2ccccn2)COc2ccccc2OC1,inactive: 2.27%
6,CCC1=CC2Cc3nc4ccc(Cl)cc4c(N)c3C(C1)C2 (centres undefined),inactive: -3.69%
7,O=C(O)C(O)c1ccc(N(CCCl)CCCl)cc1.c1ccncc1 (centres undefined),inactive: 1.12%
8,O=[N+]([O-])c1cc([N+](=O)[O-])c(-n2nnc3ccccc32)c([N+](=O)[O-])c1,inactive: -0.75%
9,CCOP(=O)(NC(=NC(C)c1ccccc1)NC(C)c1ccccc1)OCC (centres undefined),inactive: -0.78%
10,Nc1ccc(CCCCOc2ccccc2)cc1.O=[N+]([O-])c1cc([N+](=O)[O-])c(O)c([N+](=O)[O-])c1,inactive: 0.869%
11,CCOP(=O)(Nc1ccc(C)cn1)OCC,inactive: 0.983%
12,CN(CCCl)Cc1cc(Cl)c(NC2=NCCN2)c(Cl)c1,inactive: 1.71%
13,Cc1ccc(S(=O)(=O)N(CCCN)CCCc2c(C)nc(N)[nH]c2=O)cc1.O=[N+]([O-])c1cc([N+](=O)[O-])c(O)c([N+](=O)[O-])c1,inactive: -1.14%
14,CC(C)/C=N\N=C(\N)N[N+](=O)[O-],inactive: -1.17%
15,CN(C(=O)Cc1ccc(Cl)c(Cl)c1)[C@@H]1CCCC[C@H]1N1CCCC1,inactive: -0.142%
16,Cc1nc2ccc3ccccc3c2s1.O=[N+]([O-])c1cc([N+](=O)[O-])c(O)c([N+](=O)[O-])c1,inactive: -0.742%
17,CC1(CBr)Cn2c(nc3ccccc3c2=O)S1 (centres undefined),inactive: 0.693%
18,O=[N+]([O-])c1cc([N+](=O)[O-])c(-c2cnn(-c3ccccc3)c2)c([N+](=O)[O-])c1,inactive: -1.04%
19,COc1ccccc1CNC(=O)COC(=O)C(O)(c1ccccc1)c1ccccc1,inactive: -9.12%
20,CN(C)C1(CNC(=O)c2ccc(S(C)(=O)=O)cc2)CCCCC1,inactive: -0.115%
21,CC1=C2N=C(C=C3N=C(C(C)=C4[N-][C@@](C)([C@@H]5N=C1[C@](C)(CCC(=O)NC[C@@H](C)OP(=O)([O-])O[C@H]1[C@@H](O)[C@@H](n6cnc7cc(C)c(C)cc76)O[C@@H]1CO)[C@H]5CC(N)=O)[C@@](C)(CC(N)=O)[C@@H]4CCC(N)=O)[C@@](C)(CC(N)=O)[C@@H]3CCC(N)=O)C(C)(C)[C@@H]2CCC(N)=O.[C-]#N.[Co+3],inactive: -0.271%
22,O=[N+]([O-])c1cc([N+](=O)[O-])c(Nc2nnnn2CCO)c([N+](=O)[O-])c1,inactive: 0.474%
23,O=C(/C=C/c1ccccc1)OC1CN2CCC1CC2 (centres undefined),inactive: -0.525%
24,CCCC1OP(=O)(Nc2ccccc2)OCC1CC (centres undefined),inactive: 2.84%
25,Cc1nn(-c2ccccc2)c2c1P(=O)(N1CCOCC1)N(C)C(c1ccccc1)=N2 (centres undefined),inactive: 1.65% [at 38.3 µM]
26,CC1CCC(C(C)C)C(OP(=O)(Nc2ccccn2)c2ccccc2)C1 (centres undefined),inactive: 0.686%

row,Compound,activation (PINK1 increase)
1,Cc1ccc(C(=O)OC2CN3CCC2CC3)cc1 (centres undefined),inactive: -0.648%
2,COc1cc([N+](=O)[O-])ccc1[N+](=O)[O-],inactive: 7.12%
3,COc1cc(C2NCCC3(OCCO3)C2(C)C)cc(OC)c1OC.O=[N+]([O-])c1cc([N+](=O)[O-])c(O)c([N+](=O)[O-])c1 (centres undefined),inactive: 4.65%
4,CCCOc1ccc(NP(C)(=O)Oc2ccc(Cl)cc2)cc1 (centres undefined),inactive: 5.01%
5,CP(=O)(Nc1ccc(SC(F)(F)F)cc1)Oc1ccccc1 (centres undefined),inactive: 1.5%
6,Nc1cccc([As](=O)(O)c2ccccc2)c1,inactive: -0.835%
7,O=[As](O)(c1cccs1)c1cccs1,inactive: 1.35%
8,Cc1ccc(OCC(=O)OC2CN3CCC2CC3)cc1 (centres undefined),inactive: 0.13%
9,O=P1(Nc2ccc(Br)cn2)COc2ccccc2OC1,inactive: 3.89%
10,NS(=O)(=O)c1cccc(NC(=O)COC(=O)C(O)(c2ccccc2)c2ccccc2)c1,inactive: -0.595%
11,COc1ccccc1OP(C)(=O)Nc1c(C)cccc1C (centres undefined),inactive: 0.481%
12,CN1CCCCC1COC(=O)C1(O)c2ccccc2CCc2ccccc21 (centres undefined),inactive: -1.4%
13,O=P1(Nc2ncccn2)COc2ccccc2OC1,inactive: 0.967%
14,COP(=O)(OC)N1CC1c1ccccc1 (centres undefined),inactive: 2.97%
15,CCCCOc1ccc(C(=O)NCC2(N3CCCCC3)CCCCC2)cc1OC,inactive: 6.74%
16,Cc1cc(SC(NC(=O)c2ccccc2)C(Cl)(Cl)Cl)nc(C(C)C)n1 (centres undefined),inactive: -1.24%
17,O=C(O)C(=O)c1ccc(N(CCCl)CCCl)cc1.c1ccc(Nc2ccccc2)cc1,inactive: 1.34%
18,CCOC(=O)Nc1ccc([As](=O)(O)O)c(O)c1,inactive: 0.411%
19,CC1CCNP(=O)(N(CCCl)CCCl)O1 (centres undefined),inactive: 1.63%
20,O=P(Nc1ccccn1)(c1cccc2ccccc12)c1cccc2ccccc12,inactive: -0.287%
21,Cc1cc(SC(NC=O)C(Cl)(Cl)Cl)ncn1 (centres undefined),inactive: 1.41%
22,COc1ccccc1OP(C)(=O)Nc1ccccc1 (centres undefined),inactive: 0.693%
23,CP(=O)(Nc1ccccc1Br)Oc1ccccc1 (centres undefined),inactive: -1.21%
24,O=[N+]([O-])c1ccc(Nc2ccc(Oc3ccc([N+](=O)[O-])cc3[N+](=O)[O-])cc2)c([N+](=O)[O-])c1,inactive: 0.756%
25,CP(=S)(Nn1cnnc1)Oc1ccccc1 (centres undefined),inactive: -3.74%
26,CCOC(=O)Nc1cccc([As](=O)(O)O)c1,inactive: 2.33%

row,Compound,activation (PINK1 increase)
1,O=C(COc1ccccc1)OC1CN2CCC1CC2 (centres undefined),inactive: -1.66%
2,CCc1ccc(OP(C)(=O)N2CCN(c3ccc([N+](=O)[O-])cc3)CC2)cc1 (centres undefined),inactive: 0.405%
3,O=C(Nc1ccncc1[N+](=O)[O-])c1ccc([N+](=O)[O-])cc1[N+](=O)[O-],inactive: 1.73%
4,Cc1cc(C)cc(OP(C)(=O)Nc2ccc(SC(F)(F)F)cc2)c1 (centres undefined),inactive: 0.441%
5,Cc1cccc(C)c1OP(C)(=O)Nc1ccc(SC(F)(F)F)cc1 (centres undefined),inactive: 1.45%
6,CP(=O)(Nc1ccc(SC(F)(F)F)cc1)Oc1ccc(Cl)cc1 (centres undefined),inactive: 5.15%
7,CP(=O)(Oc1ccccc1)OC(c1ccccc1)C(F)(F)F (centres undefined),inactive: 3.48%
8,COC(=O)C1(C)COP(=O)(N2CCCC2)OC1 (centres undefined),inactive: -0.14%
9,CCC(C)N(CC(C)C)C(=S)SC(NC(C)=O)C(Cl)(Cl)Cl (centres undefined),inactive: 1.37%
10,CCOP(=O)(Nc1cccc2cccnc12)OCC,inactive: -0.691%
11,O=C(OC1CN2CCC1CC2)c1cccc([N+](=O)[O-])c1 (centres undefined),inactive: -0.227%
12,CCOP(C)(=S)SCC(=O)NC(C)C(=O)O (centres undefined),inactive: 1.86%
13,CCOC(=O)c1ccc(NC(=O)C(C)(CCl)SC)cc1 (centres undefined),inactive: 2.73%
14,CCOC(=O)c1ccc(NP(C)(=O)Oc2ccc(OC)cc2)cc1 (centres undefined),inactive: -2.06%
15,O=[N+]([O-])c1cc([N+](=O)[O-])c(O)c([N+](=O)[O-])c1.c1ccc(Oc2ccncc2)cc1,inactive: 1.04%
16,O=P1(N(CCCl)CCCl)OCCCN1CCCl (centres undefined),inactive: 1.25%
17,O=P1(N(CCCl)CCCl)Nc2ccccc2N1,inactive: -2.38%
18,COc1ccc2nc(NP(=O)(c3ccccc3)c3ccccc3)sc2c1,inactive: 1.88%
19,COc1cc(I)ccc1[As](=O)(O)O,inactive: 10.8%
20,Cc1c2c(nc3ccccc13)SC(C(Cl)Cl)C2 (centres undefined),inactive: -0.451%
21,O=C(OC1CN2CCC1CC2)C12CC3CC(CC(C3)C1)C2 (centres undefined),inactive: -1.58%
22,CCN(CC)CCCOC(=O)C(O)(c1ccccc1)c1ccccc1,inactive: -0.926%
23,Cc1cc(=O)[nH]c(N[N+](=O)[O-])n1,inactive: 1.49%
24,O=[N+]([O-])c1cc(Oc2ccc([N+](=O)[O-])cc2C(F)(F)F)cc([N+](=O)[O-])c1,inactive: 3.31%
25,COc1ccc(N/C(=N/P(=O)(N2CCOCC2)N2CCOCC2)N2CCOCC2)cc1,inactive: 0.797%
26,COc1ccccc1-c1ccccn1.O=[N+]([O-])c1cc([N+](=O)[O-])c(O)c([N+](=O)[O-])c1,inactive: -1.06%
